Patent US12331121B2, “Efflux pump-cancer antigen multi-specific antibodies and compositions, reagents, kits and methods related thereto” (William Robert Arathoon Living Trust Dated August 29, 2016, priority 2019, dated 2025)

Experiments:
[1] = molecular target: EGFR (Homo sapiens, UniProt P00533); experiment: EGFR binding by ELISA; details: for binding to EGFR (FIG. 31 summary): measured by ELISA or FACS
[2] = molecular target: MDR1 (293T cells overexpressing MDR1) (Homo sapiens, UniProt P08183)

Row | Substance | binding to EGFR (FIG. 31 summary) [1] | binding to MDR1 by FACS [2] | binding to EGFR by ELISA [1]
1 | MRK16 DD HC::cetuximab KK HC::MRK16 LC: anti-MDR1 anti-EGFR bispecific antibody version 3 | binding to EGFR with a lower affinity | binds to both MDR-1 and EGFR | –
2 | MRK16 DD HC::cetuximab KK HC::15D3 LC: anti-MDR1 anti-EGFR bispecific antibody version 2 | – | retained binding | retained binding
3 | 15D3 DD HC::cetuximab KK HC::MRK16 LC: anti-MDR1 anti-EGFR bispecific antibody | – | retained binding | retained binding
4 | 15D3 DD HC::cetuximab KK HC::15D3 LC: anti-MDR1 anti-EGFR bispecific antibody version 3 | binds to both MDR-1 and EGFR | binds to both MDR-1 and EGFR | –
